Molecular target: DDR2 (Homo sapiens (Human), UniProt Q16832)
Assay: DDR2 enzyme activity test (ELISA)
Assay type: biochemical
Details: read-out: DDR2 IC50
Procedure: The optical rotation and the inhibitory activity against DDR2 enzyme of the compounds S11-A and S11-B obtained by the resolution in Example 12, and the chirally synthesized compounds S11-A′ and S11-B′ in Example 13 were tested (referred to the operation in Effect example 1), and the results are shown in Table 3 below:
Detection method: Enzyme-linked immunosorbent assay (ELISA)
Test receptor tyrosine kinase: DDR2
The kinase used in the experiment was obtained by our laboratory using the insect baculovirus expression system to express and purify the recombinant protein containing the protein kinase region; polyglutamic acid-tyrosine peptide segment [Poly(Glu, Tyr) 4:1] and sodium vanadate were purchased from Sigma; the anti-phosphorylated monoclonal antibody PY99 was purchased from Santa Cruz; horseradish peroxidase labeled goat anti-murine secondary antibody was purchased from Calbiochem; ATP and OPD were purchased from Sangon Biotech (Shanghai) Co., Ltd.; the remaining reagents were purchased from Sinopharm Chemical Reagent Co., Ltd. The reaction ELISA plate (#2592) was purchased from Corning. The full-wavelength microplate reader for experiment reading was a product of Molecular Device, model: SpectraMax 190; the experimental water was distilled water produced by Sinopharm Group.
The compound was centrifuged at 12,000 g for 5 min, and DMSO was added to prepare a 10^-2M stock solution, which was vortexed evenly, then sonicated for 10 min and stored at −40° C. for later use. During the test, the compound was diluted with DMSO from the stock solution to 100 times the test concentration (the DMSO concentration in the system was 1%).
1) Enzyme reaction substrate Poly(Glu, Tyr) 4:1 was diluted to 20 μg/mL with potassium-free PBS (10 mM sodium phosphate buffer, 150 mM NaCl, pH 7.2-7.4), and the microtiter plate was coated with 125 μL/well and placed at 37° C. for 12-16 hours of reaction. The liquid in the well was discard. The plate was washed three times with T-PBS (potassium-free PBS containing 0.1% Tween-20, 200 μL/well), 5 minutes each time. The ELISA plate was dried in an oven at 37° C. for 1 to 2 hours.
2) Reaction buffer (50 mM HEPES pH 7.4, 50 mM MgCl2, 0.5 mM MnCl2, 0.2 mM Na3VO4, 1 mM DTT) diluted ATP solution (49 μL) was added to each well, 1 μL of the compound to be tested was added to each well, and then 50 μL of DDR2 kinase domain recombinant protein diluted in the reaction buffer was added to start the reaction. Two control wells without ATP were set in each experiment. The plate placed on a shaker (100 rpm) at 37° C. for 1 hour of reaction. The liquid in the well was discarded and the plate was washed three times with T-PBS.
3) Antibody PY99 dilution solution (the antibody was diluted 1:500 with T-PBS containing BSA 5 mg/mL) was added at 100 μL/well, and shaken on a shaker at 37° C. for 0.5 hour of reaction. The liquid in the well was discarded and the plate was washed three times with T-PBS.
4) Horseradish peroxidase labeled goat anti-murine secondary antibody dilution solution (the antibody is diluted 1:2000 with T-PBS containing BSA 5 mg/ml) was added at 100 μL/well, and shaken on a shaker at 37° C. for 0.5 hour of reaction. […]
6) 2M H2SO4 was added at 50 μL/well to stop the reaction, and a tunable wavelength microplate reader VERSAmax was used for reading at a wavelength of 490 nm.
The IC50 value was obtained by four-parameter regression using the software that came with the microplate reader.

By UniProt entry, the sequences of proteins in these tests, tags left out. Residues count along the entry.
UniProt Q16832, 563-849 limits assumed: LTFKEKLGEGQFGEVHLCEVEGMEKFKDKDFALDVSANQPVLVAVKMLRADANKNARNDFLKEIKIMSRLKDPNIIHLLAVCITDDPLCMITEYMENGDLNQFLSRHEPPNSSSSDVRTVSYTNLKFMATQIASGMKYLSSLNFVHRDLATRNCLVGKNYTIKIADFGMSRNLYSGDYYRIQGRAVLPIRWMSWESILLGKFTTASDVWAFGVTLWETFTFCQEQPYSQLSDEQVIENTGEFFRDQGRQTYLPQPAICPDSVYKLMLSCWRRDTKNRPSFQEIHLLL

SMILES | IC50 [nM]
C[C@H](NC(=O)c1cccc(C(F)(F)F)c1)c1ccc(C2CC2)c(-c2ccc3nc(Nc4cnn(C5CC5)c4)ncc3c2)c1 | 31
C[C@H](NC(=O)c1ccc(C2CC2)c(-c2ccc3nc(Nc4cnn(C5CC5)c4)ncc3c2)c1)c1cccc(C(F)(F)F)c1 | 100
C[C@H](NC(=O)c1cccc(C(F)(F)F)c1)c1ccc(C2CC2)c(-c2ccc3nc(Nc4cnn(C5CCN(C)CC5)c4)ncc3c2)c1 | 8.2
C[C@@H](NC(=O)c1cccc(C(F)(F)F)c1)c1ccc(C2CC2)c(-c2ccc3nc(Nc4cnn(C5CC5)c4)ncc3c2)c1 | 336
C[C@@H](NC(=O)c1ccc(C2CC2)c(-c2ccc3nc(Nc4cnn(C5CCN(C)CC5)c4)ncc3c2)c1)c1cccc(C(F)(F)F)c1 | 4.7

From US11655239B2 (SHANGHAI INSTITUTE OF MATERIAL MEDICA, CHINESE ACADEMY OF …, priority 2019, dated 2023)
